Measurements as given in paper PMC11809403.

Assays:
receptors in neutrophils = experiment: ELISA; titration ELISA of rStc1 with cardiomyocytes and with neutrophils; methods in the Supporting Information
[1] = target: receptors in cardiomyocytes; experiment: as above

pKd (receptors in neutrophils): 8.90
pKd [1]: 8.66
Substance: recombinant Stc1 protein (rStc1) (from UniProt O55183 34-247) (ligand)

pKd: −log10 of the molar value.
